The molecules below were run against PI3Kα (Homo sapiens (Human), UniProt P42336) (assay: ADP-Glo Kinase Assay, PI3Kα enzyme activity inhibition). Settings: ATP 25 μM, PIP2 50 μg/mL, 1 hour at room temperature.

Amino acid sequences for entries named in this document (tags omitted). A change or cut given only in a name is not applied to a line headed by its entry.
UniProt P42336, whole entry: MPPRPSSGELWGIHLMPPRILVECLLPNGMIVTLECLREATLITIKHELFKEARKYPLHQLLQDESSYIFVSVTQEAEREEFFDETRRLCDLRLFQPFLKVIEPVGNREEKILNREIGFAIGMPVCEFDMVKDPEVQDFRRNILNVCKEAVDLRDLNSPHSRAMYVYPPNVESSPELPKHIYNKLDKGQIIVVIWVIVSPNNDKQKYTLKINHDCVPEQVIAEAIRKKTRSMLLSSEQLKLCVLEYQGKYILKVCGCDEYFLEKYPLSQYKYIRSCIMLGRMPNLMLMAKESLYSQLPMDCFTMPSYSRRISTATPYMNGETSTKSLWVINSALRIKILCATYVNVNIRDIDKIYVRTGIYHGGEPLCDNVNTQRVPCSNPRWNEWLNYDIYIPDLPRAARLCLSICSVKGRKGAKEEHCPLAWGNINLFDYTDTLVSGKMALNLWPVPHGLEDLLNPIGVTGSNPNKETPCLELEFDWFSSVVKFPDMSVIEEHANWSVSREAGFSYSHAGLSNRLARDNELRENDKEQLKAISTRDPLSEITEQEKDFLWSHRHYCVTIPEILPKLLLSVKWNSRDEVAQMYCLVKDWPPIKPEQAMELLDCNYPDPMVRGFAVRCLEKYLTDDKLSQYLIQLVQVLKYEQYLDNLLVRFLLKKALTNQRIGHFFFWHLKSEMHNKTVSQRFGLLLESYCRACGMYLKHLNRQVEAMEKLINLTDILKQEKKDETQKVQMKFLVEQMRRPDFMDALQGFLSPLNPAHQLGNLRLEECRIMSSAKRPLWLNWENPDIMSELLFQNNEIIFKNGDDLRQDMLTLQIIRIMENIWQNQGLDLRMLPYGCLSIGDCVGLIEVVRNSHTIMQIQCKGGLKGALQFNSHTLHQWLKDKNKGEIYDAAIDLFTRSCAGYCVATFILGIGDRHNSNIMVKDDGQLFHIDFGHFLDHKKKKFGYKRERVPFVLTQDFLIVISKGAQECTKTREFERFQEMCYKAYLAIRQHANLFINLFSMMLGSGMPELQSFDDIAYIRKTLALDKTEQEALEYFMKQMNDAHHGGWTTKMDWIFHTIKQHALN
UniProt P42336, whole entry H1047R: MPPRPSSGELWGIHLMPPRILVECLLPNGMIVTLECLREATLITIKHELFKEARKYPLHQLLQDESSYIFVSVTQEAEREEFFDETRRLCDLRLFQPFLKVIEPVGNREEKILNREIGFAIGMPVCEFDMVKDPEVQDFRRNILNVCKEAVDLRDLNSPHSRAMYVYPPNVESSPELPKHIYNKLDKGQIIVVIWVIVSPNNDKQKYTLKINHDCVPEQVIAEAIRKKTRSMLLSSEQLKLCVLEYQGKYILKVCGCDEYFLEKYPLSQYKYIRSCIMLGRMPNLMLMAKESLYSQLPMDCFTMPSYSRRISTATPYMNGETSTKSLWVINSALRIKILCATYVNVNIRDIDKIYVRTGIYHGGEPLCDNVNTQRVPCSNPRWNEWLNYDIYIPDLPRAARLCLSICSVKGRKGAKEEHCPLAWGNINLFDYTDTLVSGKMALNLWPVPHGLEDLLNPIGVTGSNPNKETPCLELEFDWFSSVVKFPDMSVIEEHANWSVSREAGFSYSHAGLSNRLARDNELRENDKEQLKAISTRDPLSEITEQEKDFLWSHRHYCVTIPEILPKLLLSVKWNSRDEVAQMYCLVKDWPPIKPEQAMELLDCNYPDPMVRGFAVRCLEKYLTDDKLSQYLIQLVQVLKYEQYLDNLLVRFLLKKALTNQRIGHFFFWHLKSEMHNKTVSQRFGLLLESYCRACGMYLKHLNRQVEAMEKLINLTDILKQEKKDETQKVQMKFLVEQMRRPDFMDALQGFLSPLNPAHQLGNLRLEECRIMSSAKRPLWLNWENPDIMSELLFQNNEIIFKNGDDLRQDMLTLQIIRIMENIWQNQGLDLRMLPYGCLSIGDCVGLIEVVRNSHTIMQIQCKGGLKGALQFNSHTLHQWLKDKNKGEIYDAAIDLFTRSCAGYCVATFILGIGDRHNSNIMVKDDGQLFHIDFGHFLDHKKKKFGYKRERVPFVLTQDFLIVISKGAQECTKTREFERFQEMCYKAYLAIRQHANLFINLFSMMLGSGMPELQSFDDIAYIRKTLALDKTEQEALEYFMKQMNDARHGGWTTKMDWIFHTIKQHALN
UniProt P27986, whole entry partner: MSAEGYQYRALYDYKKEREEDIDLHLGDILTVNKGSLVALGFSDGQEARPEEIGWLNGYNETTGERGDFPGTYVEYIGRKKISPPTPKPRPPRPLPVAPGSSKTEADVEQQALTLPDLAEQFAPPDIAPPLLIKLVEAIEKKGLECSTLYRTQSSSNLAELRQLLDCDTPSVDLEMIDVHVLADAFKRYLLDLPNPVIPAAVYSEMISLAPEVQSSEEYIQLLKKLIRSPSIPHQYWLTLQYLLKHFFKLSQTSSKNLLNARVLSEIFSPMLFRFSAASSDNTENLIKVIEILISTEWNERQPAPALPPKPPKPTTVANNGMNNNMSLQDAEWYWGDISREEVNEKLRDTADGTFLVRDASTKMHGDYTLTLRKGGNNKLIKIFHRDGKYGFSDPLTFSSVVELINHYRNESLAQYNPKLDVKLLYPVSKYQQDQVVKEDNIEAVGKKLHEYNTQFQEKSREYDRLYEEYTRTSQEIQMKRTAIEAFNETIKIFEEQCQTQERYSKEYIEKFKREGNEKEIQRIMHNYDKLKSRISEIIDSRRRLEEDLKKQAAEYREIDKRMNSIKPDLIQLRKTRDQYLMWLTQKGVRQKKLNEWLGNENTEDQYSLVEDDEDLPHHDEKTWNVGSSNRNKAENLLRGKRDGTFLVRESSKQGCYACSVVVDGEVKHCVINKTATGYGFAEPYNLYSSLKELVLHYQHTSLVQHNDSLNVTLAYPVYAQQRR

Compound	PI3Kaα IC50
O=C1NC(c2cc(F)ccc2Cl)c2c(Nc3nccc4c(C(F)(F)F)cc(F)cc34)cc(-c3c[nH]nc3F)c3c2N1CC3 (stereo not shown)	+++ (+++ represents IC50>10 μM)
O=C(Nc1ccc2c3c1C(c1cc(F)ccc1Cl)NC(=O)N3CCO2)c1cc(F)cc(C(F)(F)F)c1 (stereo not shown)	+++ (+++ represents IC50>10 μM)
N#Cc1nc(N)ccc1-c1cc(NC(=O)c2cc(F)cc(C(F)(F)F)c2)c2c3c1CCN3C(=O)NC2c1cc(F)ccc1Cl (stereo not shown)	+++ (+++ represents IC50>10 μM)
O=C(Nc1ccc2nn(CC(F)(F)F)c3c2c1C(c1cc(Cl)ccc1Cl)NC3=O)c1cc(F)cc(C(F)(F)F)c1 (stereo not shown)	+++ (+++ represents IC50>10 μM)
Cn1nc(C(F)(F)F)cc1Nc1cc(NC(=O)c2cc(F)cc(C(F)(F)F)c2)c2c3c1CCN3C(=O)NC2c1cc(F)ccc1Cl (stereo not shown)	++ (++ represents 250 nM<IC50<=10 μM)
O=C(Nc1cc(-c2ccc3ncnn3c2Cl)c2c3c1C(c1cc(F)ccc1Cl)NC(=O)N3CC2)c1cc(F)cc(C(F)(F)F)c1 (stereo not shown)	++ (++ represents 250 nM<IC50<=10 μM)
NC(=O)c1cc(NC(=O)c2cc(F)cc(C(F)(F)F)c2)c2c3c1CCN3C(=O)NC2c1cc(F)ccc1Cl (stereo not shown)	++ (++ represents 250 nM<IC50<=10 μM)
O=C(Nc1cc(-c2c[nH]nc2F)c2c3c1C(c1cc(F)ccc1Cl)NC(=O)N3CC2)c1cc(F)cc(C(F)(F)F)c1 (stereo not shown)	++ (++ represents 250 nM<IC50<=10 μM)
N#Cc1c(-c2cc(NC(=O)c3cc(F)cc(C(F)(F)F)c3)c3c4c2CCN4C(=O)NC3c2cc(F)ccc2Cl)ccc2nccn12 (stereo not shown)	+++ (+++ represents IC50>10 μM)
O=C(Nc1ccc2c3c1C(c1cc(F)ccc1Cl)NC(=O)N3CC2)c1cc(F)cc(C(F)(F)F)c1 (stereo not shown)	++ (++ represents 250 nM<IC50<=10 μM)
C[C@H](N)C(=O)Nc1cc(NC(=O)c2cc(F)cc(C(F)(F)F)c2)c2c3c1CCN3C(=O)NC2c1cc(F)ccc1Cl (stereo partly shown)	+++ (+++ represents IC50>10 μM)
O=C(Nc1cc(-c2cnn(C3CCOCC3)c2)c2c3c1C(c1cc(F)ccc1Cl)NC(=O)N3CC2)c1cc(F)cc(C(F)(F)F)c1 (stereo not shown)	++ (++ represents 250 nM<IC50<=10 μM)
O=C(Nc1cc(NC(=O)[C@@H]2CCCN2)c2c3c1C(c1cc(F)ccc1Cl)NC(=O)N3CC2)c1cc(F)cc(C(F)(F)F)c1 (stereo partly shown)	++ (++ represents 250 nM<IC50<=10 μM)
O=C(Nc1cc(C(=O)O)c2c3c1C(c1cc(F)ccc1Cl)NC(=O)N3CC2)c1cc(F)cc(C(F)(F)F)c1 (stereo not shown)	+++ (+++ represents IC50>10 μM)
Cn1cc(Nc2cc(NC(=O)c3cc(F)cc(C(F)(F)F)c3)c3c4c2CCN4C(=O)NC3c2cc(F)ccc2Cl)cn1 (stereo not shown)	++ (++ represents 250 nM<IC50<=10 μM)
N#Cc1c(N)n[nH]c1-c1cc(NC(=O)c2cc(F)cc(C(F)(F)F)c2)c2c3c1CCN3C(=O)NC2c1cc(F)ccc1Cl (stereo not shown)	+++ (+++ represents IC50>10 μM)
O=C(Nc1cc(-c2cc(C(F)(F)F)n[nH]2)c2c3c1C(c1cc(F)ccc1Cl)NC(=O)N3CC2)c1cc(F)cc(Cl)c1 (stereo not shown)	++ (++ represents 250 nM<IC50<=10 μM)
Nc1cc(-c2cc(NC(=O)c3cc(F)cc(C(F)(F)F)c3)c3c4c2CCN4C(=O)NC3c2cc(F)ccc2Cl)[nH]n1 (single isomer, unassigned) [YL053-P1]	+++ (+++ represents IC50>10 μM)
O=C1NC(c2cc(F)ccc2Cl)c2c(Nc3nccc4c(C(F)(F)F)cc(F)cc34)cc(Nc3c[nH]nc3F)c3c2N1CC3 (stereo not shown)	+++ (+++ represents IC50>10 μM)
Nc1c(-c2cc(NC(=O)c3cc(F)cc(C(F)(F)F)c3)c3c4c2CCN4C(=O)NC3c2cc(F)ccc2Cl)ccc2ncnn12 (stereo not shown)	+++ (+++ represents IC50>10 μM)

Compound	PI3Kaα IC50
O=C(Nc1cc(-c2cnc3[nH]cnc3c2)c2c3c1C(c1cc(F)ccc1Cl)NC(=O)N3CC2)c1cc(F)cc(C(F)(F)F)c1 (stereo not shown)	+++ (+++ represents IC50>10 μM)
O=C(Nc1cc(-c2cc(C(F)(F)F)n[nH]2)c2c3c1C(c1cc(F)ccc1Cl)NC(=O)N3CC2)c1cc(F)cc(C(F)(F)F)c1 (single isomer, unassigned) [YL065-P2]	++ (++ represents 250 nM<IC50<=10 μM)
O=C(Nc1cc(Br)c2c3c1C(c1cccc4ccccc14)NC(=O)N3CC2)c1cc(F)cc(C(F)(F)F)c1 (stereo not shown)	+++ (+++ represents IC50>10 μM)
Cc1ccccc1C1NC(=O)N2CCc3ccc(NC(=O)c4csc5ccccc45)c1c32 (stereo not shown)	++ (++ represents 250 nM<IC50<=10 μM)
O=C(Nc1cc(-c2cc(C(F)(F)F)n[nH]2)c2c3c1C(c1cc(F)ccc1Cl)NC(=O)N3CC2)c1cc(F)cc(C(F)(F)F)c1 (single isomer, unassigned) [YL065]	++ (++ represents 250 nM<IC50<=10 μM)
Cc1c(-c2cc(NC(=O)c3cc(F)cc(C(F)(F)F)c3)c3c4c2CCN4C(=O)NC3c2cc(F)ccc2Cl)ccc2ncnn12 (stereo not shown)	+++ (+++ represents IC50>10 μM)
O=C(CO)Nc1cc(NC(=O)c2cc(F)cc(C(F)(F)F)c2)c2c3c1CCN3C(=O)NC2c1cc(F)ccc1Cl (stereo not shown)	+++ (+++ represents IC50>10 μM)
O=C(Nc1ccc2c3c1C(c1cc(F)ccc1Cl)NC(=O)N3CCC2)c1cc(F)cc(C(F)(F)F)c1 (stereo not shown)	+++ (+++ represents IC50>10 μM)
O=C(Nc1cc(-c2cc(C(F)(F)F)n[nH]2)c2c3c1C(c1cc(F)ccc1Cl)NC(=O)N3CC2)c1cc(F)cc(C(F)(F)F)c1 (single isomer, unassigned) [YL065-P1]	+++ (+++ represents IC50>10 μM)
NCC(=O)Nc1cc(NC(=O)c2cc(F)cc(C(F)(F)F)c2)c2c3c1CCN3C(=O)NC2c1cc(F)ccc1Cl (stereo not shown)	+++ (+++ represents IC50>10 μM)
O=C(Nc1cc(N2CCOCC2)c2c3c1C(c1cc(F)ccc1Cl)NC(=O)N3CC2)c1cc(F)cc(C(F)(F)F)c1 (stereo not shown)	+++ (+++ represents IC50>10 μM)
N#Cc1nc(N)ccc1-c1cc(NC(=O)c2cc(F)cc(C(F)(F)F)c2)c2c3c1CCN3C(=O)NC2c1cc(Cl)ccc1Cl (single isomer, unassigned) [YL114-P2]	+++ (+++ represents IC50>10 μM)
O=C(Nc1cc(-c2cccc3nncn23)c2c3c1C(c1cc(F)ccc1Cl)NC(=O)N3CC2)c1cc(F)cc(C(F)(F)F)c1 (stereo not shown)	++ (++ represents 250 nM<IC50<=10 μM)
O=C(Nc1ccc2ccn3c2c1C(c1cc(F)ccc1Cl)NC3=O)c1cc(F)cc(C(F)(F)F)c1 (stereo not shown)	++ (++ represents 250 nM<IC50<=10 μM)
O=C(Nc1cc(-c2cn[nH]c2)c2c3c1C(c1cc(F)ccc1Cl)NC(=O)N3CC2)c1cc(F)cc(C(F)(F)F)c1 (stereo not shown)	++ (++ represents 250 nM<IC50<=10 μM)
CC(C)Nc1cc(NC(=O)c2cc(F)cc(C(F)(F)F)c2)c2c3c1CCN3C(=O)NC2c1cc(F)ccc1Cl (stereo not shown)	++ (++ represents 250 nM<IC50<=10 μM)
O=C1NC(c2cc(F)ccc2Cl)c2c(Nc3nccc4c(C(F)(F)F)cc(F)cc34)cc(Nc3cc(C(F)(F)F)n[nH]3)c3c2N1CC3 (stereo not shown)	+++ (+++ represents IC50>10 μM)
Nc1cc(-c2cc(NC(=O)c3cc(F)cc(C(F)(F)F)c3)c3c4c2CCN4C(=O)NC3c2cc(F)ccc2Cl)[nH]n1 (single isomer, unassigned) [YL053-P2]	++ (++ represents 250 nM<IC50<=10 μM)
O=C(Nc1cc(Br)c2c3c1C(c1cc(F)ccc1Cl)NC(=O)N3CC2)c1cc(F)cc(C(F)(F)F)c1 (stereo not shown)	++ (++ represents 250 nM<IC50<=10 μM)

These molecules were tested against PI3Kα H1047R (Homo sapiens (Human), UniProt P42336, H1047R) (assay: ADP-Glo Kinase Assay, PI3Kα H1047R enzyme activity inhibition). Settings: read-out: PI3KαH1047RIC50, ATP 25 μM, PIP2 50 μg/mL, 1 hour at room temperature.

Compound	IC50 [µM]
N#Cc1nc(N)ccc1-c1cc(NC(=O)c2cc(F)cc(C(F)(F)F)c2)c2c3c1CCN3C(=O)NC2c1cc(F)ccc1Cl (stereo not shown)	< 0.25
O=C(Nc1ccc2nn(CC(F)(F)F)c3c2c1C(c1cc(Cl)ccc1Cl)NC3=O)c1cc(F)cc(C(F)(F)F)c1 (stereo not shown)	< 0.25
N#Cc1c(N)n[nH]c1-c1cc(NC(=O)c2cc(F)cc(C(F)(F)F)c2)c2c3c1CCN3C(=O)NC2c1cc(F)ccc1Cl (stereo not shown)	< 0.25
N#Cc1nc(N)ccc1-c1cc(NC(=O)c2cc(F)cc(C(F)(F)F)c2)c2c3c1CCN3C(=O)NC2c1cc(Cl)ccc1Cl (single isomer, unassigned) [YL114-P1]	> 10
Cc1c(-c2cc(NC(=O)c3cc(F)cc(C(F)(F)F)c3)c3c4c2CCN4C(=O)NC3c2cc(F)ccc2Cl)ccc2ncnn12 (stereo not shown)	< 0.25
O=C(Nc1cc(N2CCOCC2)c2c3c1C(c1cc(F)ccc1Cl)NC(=O)N3CC2)c1cc(F)cc(C(F)(F)F)c1 (stereo not shown)	0.25 to 10
N#Cc1nc(N)ccc1-c1cc(NC(=O)c2cc(F)cc(C(F)(F)F)c2)c2c3c1CCN3C(=O)NC2c1cc(Cl)ccc1Cl (single isomer, unassigned) [YL114-P2]	< 0.25

Reference: patent US20240158408A1, “Nitrogen-Containing Heterocyclic Compound, Pharmaceutical Compositions thereof and Use thereof” (280 Bio, Inc., priority 2022, published 2024)
